Reference: US20100267775A1, “OXADIAZOLIDINEDIONE COMPOUND” (priority 2007, published 2010)
pEC50: −log10 of the molar value.

The chains behind the UniProt entries cited, without tags or fusion partners.
UniProt O14842, whole entry R211H: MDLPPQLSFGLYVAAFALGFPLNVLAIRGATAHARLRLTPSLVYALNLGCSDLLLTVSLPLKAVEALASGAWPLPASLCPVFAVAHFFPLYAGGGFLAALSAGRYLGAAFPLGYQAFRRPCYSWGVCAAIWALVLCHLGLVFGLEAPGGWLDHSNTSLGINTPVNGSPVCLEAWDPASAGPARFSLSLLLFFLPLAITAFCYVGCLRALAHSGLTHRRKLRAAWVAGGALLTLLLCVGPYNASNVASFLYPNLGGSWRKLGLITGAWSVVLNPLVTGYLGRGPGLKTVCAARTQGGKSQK

Key:
[1] = molecular target: human GPR40 (Homo sapiens, UniProt O14842, R211H); test: Measurement of GPR40 agonistic activity (intracellular calcium, FLIPR, CHO cell line expressing human GPR40); settings: change in fluorescence intensity one minute after measurement, tested form: Na salt
Source text: Test Method 1: Measurement of GPR40 Agonistic Activity i) Cloning of Human GPR40
In accordance with procedures as described below, the full-length sequence of GPR40 was obtained by a polymerase chain reaction (PCR) to set human genomic DNA (Clontech) as a template.
Oligonucleotide which consists of a base sequence represented by SEQ ID NO. 1 was used as a forward primer, and oligonucleotide which consists of a base sequence represented by SEQ ID NO. 2 was used as a reverse primer. To each 5′ terminus of the forward primer and the reverse primer described above, a base sequence including the XbaI recognition site is attached. In the PCR, using Taq DNA polymerase (Ex Taq DNA polymerase; TAKARA BIO INC.), a cycle consisting of 94° C. (15 sec)/55° C. […]
The GPR40 agonistic activity was measured with fluctuation of the intracellular calcium concentration as an index by FLIPR (registered trademark, Molecular Devices Corporation). […]
A CHO cell line expressing human GPR40 was seeded with 6×10^3 per well to a 384-well black plate (Becton, Dickinson and Company), and cultivated in a CO2 incubator overnight. […] A reaction was initiated by 10 μl of dispensation, the fluctuation of the intracellular calcium concentration was measured by FLIPR. An EC50 value of the compound to be inspected was calculated from the dose-response curve of change in fluorescence intensity one minute after measurement.

[2] = system: normal mice; test: Single oral glucose tolerance test on normal mice; type: in vivo; settings: tested form: Na salt
Protocol: Test Method 3: Single Oral Glucose Tolerance Test on Normal Mice
The anti-hyperglycemic action after glycemic load of the compound to be inspected was examined using normal mice. Hereinafter, the test method will be described.
Male ICR mice which was preparedly reared for one week (6-week-old) was fasted overnight, and used as an animal to be inspected. A compound to be inspected was 0.5% methylcellulose suspension, and the suspension was orally administered 30 minutes before the glucose (2 g/kg) load. With regard to some compounds to be inspected, prior blood drawing was performed (0 min value), and blood glucose levels were measured at 5, 15, 30, 60 and 120 minutes later glucose load when the compound to be inspected was orally administered. A control group was given 0.5% methylcellulose. The evaluation was carried out in the following manner. (Evaluation 1) The reduction rate of blood glucose levels after glucose loading (%) with respect to the control group was calculated at a point of glucose load which is 30 minutes after the oral administration of 10 mg/kg of the compound to be inspected. […]
(Evaluation 2) The reduction rate of blood glucose levels after glucose loading (%) with respect to the control group was calculated at a point of glucose load which is 30 minutes after the oral administration of 10, 3, 1, 0.3 or 0.1 mg/kg of the compound to be inspected. […]

Cc1cc(OCCO)cc(C)c1-c1cccc(COc2ccc(Cn3oc(=O)[nH]c3=O)cn2)c1
pEC50 [1]: 7.03 | Reduction rate of blood glucose level (%) ([2]; Evaluation 1: male ICR mice, 10 mg/kg oral 30 minutes before glucose (2 g/kg) load, with respect to control group): 43% | MED ([2]; Evaluation 2: minimum oral dose (10, 3, 1, 0.3 or 0.1 mg/kg) with reduction rate 20% or more or significant decrease vs control, 'Below' = lower doses not tested): 3 mg/kg
